Blank lines part the entries; values can stand above or below the binder they belong to.
Target: PD-1 (immobilised SPR ligand) (UniProt Q15116 25-288)
Assay: SPR

Amino acid sequences for entries named in this document (tags omitted). Residues count along the entry.
UniProt Q15116, 25-288: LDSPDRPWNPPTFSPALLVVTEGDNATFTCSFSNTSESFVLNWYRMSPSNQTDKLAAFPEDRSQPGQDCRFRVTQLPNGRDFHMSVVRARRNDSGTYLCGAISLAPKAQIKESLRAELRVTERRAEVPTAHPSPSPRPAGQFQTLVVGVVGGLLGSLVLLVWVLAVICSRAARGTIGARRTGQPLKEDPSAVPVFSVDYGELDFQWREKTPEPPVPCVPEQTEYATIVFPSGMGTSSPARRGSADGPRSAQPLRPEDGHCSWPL

Kd: 794 nM
Binder: TCEVRCENGNRIEYPATSDLECLHWCLDAIFSSPNYRCTCTHK (designed binder) [DBP13_02]

Kd: 79.6 nM
B1: Nivolumab Fab (antibody, V domains shown)
VH: QVQLVESGGGVVQPGRSLRLDCKASGITFSNSGMHWVRQAPGKGLEWVAVIWYDGSKRYYADSVKGRFTISRDNSKNTLFLQMNSLRAEDTAVYYCATNDDYWGQGTLVTVSS
VL: EIVLTQSPATLSLSPGERATLSCRASQSVSSYLAWYQQKPGQAPRLLIYDASNRATGIPARFSGSGSGTDFTLTISSLEPEDFAVYYCQQSSNWPRTFGQGTKVEIKR
